The assay has as its target Human Factor B (human) (UniProt P00751). Kind of assay: cell-based or functional assay.
Take “uPA C122S/V38D/A96N/D97A/A98G/H99V/T97a_L97bdel (from UniProt P00749 179-430) (enzyme)”: the hu Factor B cleavage (ELISA) EC50 (nM) is above 1000 nM. For the substance “uPA V38D/A96E/D97E/C122S/A98G/H99A/T97a_L97bdel (from UniProt P00749 179-430) (enzyme)”, the hu Factor B cleavage (ELISA) EC50 (nM) is above 750 nM. Substance “uPA V38D/A96E/D97G/C122S/Y172L/A98G/H99M/T97a_L97bdel (from UniProt P00749 179-430) (enzyme)” gave a hu Factor B cleavage (ELISA) EC50 (nM) above 1200 nM.

For the substance “uPA V38D/A96G/D97E/A98G/H99V/C122S/T97a_L97bdel (from UniProt P00749 179-430) (enzyme)”, the hu Factor B cleavage (ELISA) EC50 (nM) is above 950 nM. On to “uPA V38D/A98G/H99A/C122S/L97bdel (from UniProt P00749 179-430) (enzyme)”, for which the hu Factor B cleavage (ELISA) EC50 (nM) is above 1600 nM. The same measure, in the same setting: the figure for “uPA V38D/A98G/H99A/C122S/T97a_L97bdel (from UniProt P00749 179-430) (enzyme)” is above 800 nM; for “uPA V38D/A98G/H99L/C122S/T97a_L97bdel (from UniProt P00749 179-430) (enzyme)” it is above 550 nM; for “uPA V38D/C122S/A96D/D97G/A98G/H99A/T97a_L97bdel (from UniProt P00749 179-430) (enzyme)” it is above 1100 nM. In turn, “uPA V38D/C122S/A96D/D97T/A98G/H99M/T97a_L97bdel (from UniProt P00749 179-430) (enzyme)” yielded a hu Factor B cleavage (ELISA) EC50 of 7860 nM. Take “uPA V38D/C122S/A96D/D97W/A98N/H99L/T97a_L97bdel (from UniProt P00749 179-430) (enzyme)”: the hu Factor B cleavage (ELISA) EC50 came out at 3720 nM.

The substance “uPA V38D/C122S/A96E/D97H/A98G/H99L/T97a_L97bdel (from UniProt P00749 179-430) (enzyme)” registered a hu Factor B cleavage (ELISA) EC50 (nM) above 1050 nM. On the same count and under the same terms, the figure for “uPA V38D/C122S/A96E/D97R/A98G/H99V/T97a_L97bdel (from UniProt P00749 179-430) (enzyme)” is above 3000 nM; for “uPA V38D/C122S/D97L/A98G/H99V/T97a_L97bdel (from UniProt P00749 179-430) (enzyme)” it is above 950 nM; for “uPA V38D/C122S/T97a_L97bdel (from UniProt P00749 179-430) (enzyme)” it is above 3000 nM. Consider “uPA V38D/D97A/C122S/A98G/H99L/T97a_L97bdel (from UniProt P00749 179-430) (enzyme)”, for which the hu Factor B cleavage (ELISA) EC50 (nM), average of n=2, S.D. 8145.9 is 6560 nM.

For the origin of these results see patent US20240117334A1, “FACTOR B PROTEASES” (Vertex Pharmaceuticals Incorporated, priority 2021, published 2024).
